Patent publication US20090054517A1, “Phytoestrogens As Regulators Of Hedgehog Signaling And Methods Of Their Use In Cancer Treatment” (priority 2007, published 2009)

Test system: Hedgehog pathway activity in Shh Light II cells
Test: Shh Light II Gli1-responsive luciferase reporter assay
Format: cell-based
Conditions: Shh Light II cells with sonic hedgehog protein, 24 hours, FIG. 7B
Experimental: The effects of various phytoestrogens on Hedgehog signaling in a non-tumor cell line Shh Light II were also assessed (FIG. 7B). Shh Light II cells were obtained from the ATCC. These cells, containing the Gli1 responsive promoter driving a luciferase reporter, are a standard tool used to assay Hedgehog pathway activity. Meloni et al., 2006. Cells were allowed to reach confluency in 24-well plates and subsequently treated with the selected phytoestrogens at the amount indicated on the figure, along with the stimulatory sonic hedgehog protein (obtained from R&D Systems). The cells were then grown for 24 hours in phenol red-free DMEM supplemented with 0.5% charcoal stripped fetal bovine serum. Cells were then lysed, and the luciferase and renilla activities of the cell lysates were measured.

Compound: CC1=C2C[C@H]3[C@@H](CC=C4C[C@@H](O)CC[C@@]43C)[C@@H]2CC[C@]12O[C@@H]1C[C@H](C)CN[C@H]1[C@H]2C [cyclopamine]
- hedgehog activity (luciferase reporter activity): inhibit
